Data from PubChem BioAssay AID588590 (National Center for Advancing Translational Sciences (NCATS), 2011).
Only a part is listed here, and it is no random draw. Records with an inconclusive call do not appear. Active and inactive are the calls of the source. The call rests on the fitted dose curve; in most records, active means well fitted inhibition curve with a large enough effect; inconclusive means small, poorly fitted or top-dose-only effect, or another doubt; inactive means no such curve, though single readings can be large or run the other way.

The chains behind the UniProt entries cited, without tags or fusion partners. Where a name states a change or a piece, a line headed by the entry shows the natural chain unless it says otherwise.
UniProt Q9UNA4: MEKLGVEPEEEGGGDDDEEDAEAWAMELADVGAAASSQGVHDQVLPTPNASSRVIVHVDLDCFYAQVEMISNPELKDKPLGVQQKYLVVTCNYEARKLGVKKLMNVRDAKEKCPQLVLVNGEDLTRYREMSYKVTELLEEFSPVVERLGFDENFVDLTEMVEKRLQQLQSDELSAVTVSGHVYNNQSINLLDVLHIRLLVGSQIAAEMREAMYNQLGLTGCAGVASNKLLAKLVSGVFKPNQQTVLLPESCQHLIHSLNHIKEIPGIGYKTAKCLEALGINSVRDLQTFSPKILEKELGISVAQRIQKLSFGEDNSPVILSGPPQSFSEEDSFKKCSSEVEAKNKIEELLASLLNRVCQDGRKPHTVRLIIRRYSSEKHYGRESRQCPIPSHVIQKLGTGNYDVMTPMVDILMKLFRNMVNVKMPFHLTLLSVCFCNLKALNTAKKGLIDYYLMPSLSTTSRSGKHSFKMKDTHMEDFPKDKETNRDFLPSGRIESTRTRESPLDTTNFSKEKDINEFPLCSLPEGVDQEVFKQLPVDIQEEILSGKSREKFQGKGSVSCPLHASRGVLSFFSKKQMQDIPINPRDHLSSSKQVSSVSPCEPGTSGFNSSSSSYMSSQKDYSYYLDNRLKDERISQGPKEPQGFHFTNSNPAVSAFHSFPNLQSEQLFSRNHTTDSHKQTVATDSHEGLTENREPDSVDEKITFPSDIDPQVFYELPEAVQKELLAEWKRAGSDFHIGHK

molecular target: DNA polymerase iota (Homo sapiens) (UniProt Q9UNA4); assay: qHTS for Inhibitors of Polymerase Iota; settings: Pol iota fluorescent replication assay, 10 min; series mostly up to 115 µM; activity, negative = inhibition: at the top concentration
Potency means the concentration at half of the fitted maximal effect.

SMILES | activity, negative = inhibition | Potency
COc1cccc([N+](=O)[O-])c1[N+](=O)[O-] | inactive: 33.6% | 
CC(C)C(=O)NC(Sc1ccccc1)C(Cl)(Cl)Cl (stereo not given) | inactive: 77.4% | 
O=P(Nc1nccs1)(c1ccccc1)c1ccccc1 | inactive: 12.8% | 
c1nnnn1CCn1cnnn1 | inactive: 2.32% | 
O=[N+]([O-])c1ccc(O)c(/C=N/Nc2ccc([N+](=O)[O-])cc2[N+](=O)[O-])c1 | inactive: -17.5% | 
O=[N+]([O-])c1ncn(CCn2cnc([N+](=O)[O-])n2)n1 | inactive: 32.4% | 
CC(=O)NC(SC(=S)N(C)C)C(Cl)(Cl)Cl (stereo not given) | inactive: 10.4% | 
O=[As](O)(c1ccccc1)c1ccc(O)cc1 | inactive: -11.2% | 
Nc1ccc([As](=O)(O)c2ccc([N+](=O)[O-])cc2)cc1 | inactive: -17.7% | 
C(Cc1nn[nH]n1)Cc1nn[nH]n1 | inactive: 1.24% | 
O=C(OC1CN2CCC1CC2)c1cccc(Cl)c1 (stereo not given) | inactive: 7.07% | 
O=P(Nc1ccccn1)(c1ccc(Br)cc1)c1ccc(Br)cc1 | inactive: 16.2% | 
CN(C)C1(CNC(=O)c2ccc(Cl)c(S(N)(=O)=O)c2)CCCCC1 | inactive: 151% | 
O=P(Nc1nc2ccccc2s1)(c1ccccc1)c1ccccc1 | inactive: 22.2% | 
C[C@H]1OP(=O)(Oc2ccccc2)[C@H](O)[C@H](O)[C@H]1N=[N+]=[N-] (stereo not given in full) | inactive: 0.466% | 
COC(=O)c1cc2c(s1)N=C(c1ccccc1)N(C)P2(=O)N1CCOCC1 (stereo not given) | inactive: -3.08% | 
Cc1ccc(OP(=O)(Nc2ccccn2)Oc2ccc(C)cc2)cc1 | inactive: 16.8% | 
CC(=O)NC(SC(=S)N(CC(C)C)CC(C)C)C(Cl)(Cl)Cl (stereo not given) | inactive: 7.61% | 
CN(C(=O)Cc1ccc(Cl)c(Cl)c1)[C@@H]1CCCC[C@@H]1N1CCCC1 | inactive: 4.18% [at 58.9 µM] | 
O=C(OC1CN2CCC1CC2)c1ccccc1 (stereo not given) | inactive: 150% | 
CCC(=O)N1C2C3N(C(=O)CC)C1C1N(C(=O)CC)C(C(N1C(=O)CC)N3C(=O)CC)N2C(=O)CC | inactive: 4.63% | 
Cc1ccccc1OP(=O)(Nc1ccccn1)Oc1ccccc1C | inactive: 149% | 
CC(NC(=O)COC(=O)C(O)(c1ccccc1)c1ccccc1)c1ccccc1 (stereo not given) | inactive: -13.2% | 
CN(C)C(=O)Oc1noc2ccccc12 | inactive: 67.4% | 
O=c1c2cc([N+](=O)[O-])ccc2[nH]c2c([N+](=O)[O-])cc([N+](=O)[O-])cc12 |  | active: 15.8 µM
CCNC(=S)/N=C(\N)N[N+](=O)[O-] | inactive: -6.53% | 
O=C(NC1CCS(=O)(=O)C1)NP(=S)(Oc1ccccc1)Oc1ccccc1 (stereo not given) | inactive: 21.1% | 

SMILES | activity, negative = inhibition | Potency
c1ccc(-c2nn[nH]n2)c(-c2nn[nH]n2)c1 | inactive: 34.6% | 
O=[N+]([O-])c1cc([N+](=O)[O-])c2nc[nH]c2c1 | inactive: 36.4% | 
Cc1ccc(NP(=O)(Oc2cccc(C)c2)Oc2cccc(C)c2)nc1 | inactive: 57.2% | 
O=P1(N(CCCl)CCCl)OCCC2CCCCN21 (stereo not given) | inactive: 52.2% | 
N#C/C(=C\c1ccc(N(CCBr)CCBr)cc1)C(N)=O | inactive: -21.7% | 
CC(=O)c1ccc(N2CC2c2ccncc2)cc1 (stereo not given) | inactive: -5.12% | 
COC(=O)C1(C)COP(=O)(NCc2ccccc2)OC1 (stereo not given) | inactive: 22.5% | 
Cc1ccccc1CN(C)C(=O)COC(=O)C(O)(c1ccccc1)c1ccccc1 | inactive: -13.7% | 
C[C@@H]1C=CCP(=O)(Oc2ccccc2)O1 (stereo not given in full) | inactive: 12.7% | 
C[C@H]1OP(=O)(Oc2ccccc2)C[C@@H]2O[C@@H]21 (stereo not given in full) | inactive: -3.49% | 
CC(=O)Nc1ccc([As](=O)(O)O)c(O)c1 | inactive: 13.3% | 
CC(=O)Nc1ccc(Oc2c([N+](=O)[O-])cc([N+](=O)[O-])cc2[N+](=O)[O-])cc1 | inactive: -6.6% | 
O=P1(Nc2nc3ccc(Cl)cc3s2)COc2ccccc2O1 (stereo not given) | inactive: -3.96% | 
CCc1cc(O)c([N+](=O)[O-])c(C)c1[N+](=O)[O-] | inactive: 64.6% | 
CC(C)(C)C(=O)NC(Sc1ccccc1)C(Cl)(Cl)Cl (stereo not given) | inactive: 100% | 
CC(C)CC(=O)NC(Sc1ccc(Cl)cc1)C(Cl)(Cl)Cl (stereo not given) | inactive: 11.2% | 
O=C(NC(Sc1ccncn1)C(Cl)(Cl)Cl)c1ccccc1 (stereo not given) | inactive: 29.4% | 
O=[N+]([O-])c1cc2c(cc1[N+](=O)[O-])OCO2 | inactive: 16.8% | 
NC(=O)c1cc([N+](=O)[O-])cc([N+](=O)[O-])c1N | inactive: 27.9% | 
Cc1ccc(N/C(=N/P(=O)(N2CCOCC2)N2CCOCC2)N2CCOCC2)cc1 | inactive: 29% | 
COc1ccccc1OP(=O)(Nc1ccc(C)cn1)Oc1ccccc1OC | inactive: -10.5% | 
Cc1ccc(OP(=O)(Nc2nccs2)Oc2ccc(C)cc2)cc1 | inactive: 144% | 
Clc1ccc(Cl)c(NC2=NCC(CBr)S2)c1 (stereo not given) | inactive: 45.7% | 
CN1CCCC(OC(=O)C(c2ccccc2)c2ccccc2)C1 (stereo not given) | inactive: 19.7% | 
Nc1c(O)cc([N+](=O)[O-])cc1[N+](=O)[O-] | inactive: 9.91% | 
CCN(N=Nc1nonc1N)c1nonc1N | inactive: 174% | 
CC(=O)Nc1ccc([As](=O)(O)O)cc1 | inactive: 35.5% | 

SMILES | activity, negative = inhibition | Potency
CCCC1OP(N)(=O)OCC1CC (stereo not given) | inactive: -8.99% | 
O=P(Nc1nc2ccc(Cl)cc2s1)(c1ccccc1)c1ccccc1 | inactive: 44.5% | 
CCOP(=O)(Nc1ccccc1)OCC | inactive: -0.529% | 
Cc1cc(SC(NC(=O)c2ccc(F)cc2)C(Cl)(Cl)Cl)ncn1 (stereo not given) | inactive: 11% | 
Cc1ccc(NP(=O)(Oc2ccccc2F)Oc2ccccc2F)nc1 | inactive: -10.2% | 
CN(C(=O)Cc1ccc(Cl)c(Cl)c1)[C@H]1CCCC[C@@H]1N1CCCC1 | inactive: 14.8% [at 58.9 µM] | 
CC(C)(C)C(=O)NC(Sc1ccncn1)C(Cl)(Cl)Cl (stereo not given) | inactive: 15.1% | 
Cn1c(=O)[nH]c(=O)c2c1nc(Br)n2Cc1ccccc1 | inactive: 135% | 
O=[N+]([O-])c1ncn(CCn2ncnc2[N+](=O)[O-])n1 | inactive: 8.39% | 
O=[N+]([O-])c1cccc(NC2=NCC(CBr)S2)c1 (stereo not given) | inactive: 33.1% | 
COC(=O)C1(C)COP(=O)(Nc2ccccc2)OC1 (stereo not given) | inactive: 12.9% | 
O=C(O)CNc1ccc([As](=O)(O)O)cc1 | inactive: -9.39% | 
Cc1cc(C=O)ccc1N(CCCl)CCCl | inactive: -23.8% | 
O=P1(N(CCCl)CCCl)OCCCS1 (stereo not given) | inactive: 13.3% | 
O=C(Nc1cc([As](=O)(O)O)ccc1O)c1ccccc1 | inactive: -13.4% | 
Nc1ccc([As](=O)(O)c2ccc(N)cc2)cc1 | inactive: 153% | 
CCN(/C(=N/P(=O)(N1CCOCC1)N1CCOCC1)N1CCOCC1)c1ccc(OC)cc1 | inactive: 86.7% | 
CC(C)=N/N=C(\N)N[N+](=O)[O-] | inactive: 68.4% | 
COc1cc([N+](=O)[O-])c([N+](=O)[O-])cc1OC | inactive: 6.07% | 
CN(C)C(=O)OCCc1n(C)cc[n+]1C | inactive: 19.1% | 
CC1CCN(C(=O)Oc2c(Cl)cc(Cl)c3cccnc23)CC1 | inactive: 18.5% | 
COc1ccc(C2=NCC(CBr)S2)cc1 (stereo not given) | inactive: 134% | 
O=[N+]([O-])c1cccc2n[nH]nc12 | inactive: -3.43% | 
CC(=O)N1C2C3N(C(C)=O)C1C1N(C(C)=O)C(C(N1C(C)=O)N3C(C)=O)N2C(C)=O | inactive: 12.6% | 
Cc1ccc(NP(=O)(Oc2ccccc2)Oc2ccccc2)nc1 | inactive: 6.75% | 
CCc1nc2c(n1)c1c(non1O)c1c2no[n+]1[O-] |  | active: 10 µM
